Measured values published in patent US20070077583A1, “Alpha enolase-directed diagnostics and therapeutics for cancer and chemotherapeutic drug resistance” (Aurelium BioPharma, Inc., priority 2005, published 2007).

Test system: PC-3 cells
Experiment: MTT cytotoxicity assay, PC-3 cells transfected with α-enolase siRNA
Format: cell-based

CC(=O)O[C@@]12CO[C@@H]1C[C@H](O)[C@@]1(C)C(=O)[C@H](O)C3=C(C)[C@@H](OC(=O)[C@H](O)[C@@H](NC(=O)OC(C)(C)C)c4ccccc4)C[C@@](O)([C@@H](OC(=O)c4ccccc4)[C@H]21)C3(C)C [Docetaxel]
combination with enolase siRNA in cell killing: synergistic
